Experimental data reported in patent US20260034252A1, “FIBROBLAST ACTIVATION PROTEIN-TARGETED COMPOSITIONS AND METHODS OF USE THEREOF” (Ratio Therapeutics, Inc., priority 2022, published 2026).
pIC50: −log10 of the molar value.

The chains behind the UniProt entries cited, without tags or fusion partners.
UniProt Q12884, whole entry: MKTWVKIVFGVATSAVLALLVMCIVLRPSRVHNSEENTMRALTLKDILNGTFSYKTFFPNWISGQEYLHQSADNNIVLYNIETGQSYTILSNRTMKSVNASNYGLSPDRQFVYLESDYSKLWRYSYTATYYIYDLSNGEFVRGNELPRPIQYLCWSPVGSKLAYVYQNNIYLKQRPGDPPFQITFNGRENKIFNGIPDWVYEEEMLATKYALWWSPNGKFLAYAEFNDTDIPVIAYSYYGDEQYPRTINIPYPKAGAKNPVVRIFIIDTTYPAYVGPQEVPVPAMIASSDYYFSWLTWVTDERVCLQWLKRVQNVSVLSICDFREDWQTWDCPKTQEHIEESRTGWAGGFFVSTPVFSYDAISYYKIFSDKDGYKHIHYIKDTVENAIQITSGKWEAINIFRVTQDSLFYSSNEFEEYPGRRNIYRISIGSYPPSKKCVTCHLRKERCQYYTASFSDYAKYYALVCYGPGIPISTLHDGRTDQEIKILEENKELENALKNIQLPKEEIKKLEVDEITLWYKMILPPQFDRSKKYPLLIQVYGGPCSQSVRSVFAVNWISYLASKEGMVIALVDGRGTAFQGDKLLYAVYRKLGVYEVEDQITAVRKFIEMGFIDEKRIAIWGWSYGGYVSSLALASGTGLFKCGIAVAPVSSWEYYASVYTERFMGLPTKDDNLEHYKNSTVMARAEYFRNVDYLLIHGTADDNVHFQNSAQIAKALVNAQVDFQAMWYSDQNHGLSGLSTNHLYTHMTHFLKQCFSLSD

Target: Human FAP (Homo sapiens (Human), UniProt Q12884)
Assay: FAP protease inhibition assay (FAM-labeled substrate peptide, microfluidic electrophoresis)
Settings: enzyme 0.5 nM, substrate peptide 1 uM, 15 minutes pre-incubation, three hours for human FAP

SMILES | pIC50
CC(C)Cc1ccc(CC(=O)NCCCC[C@H](NC(=O)[C@H](CCCCNC(=S)Nc2ccc(CC3CN(CC(=O)O)CCN(CC(=O)O)CCN3CC(=O)O)cc2)NC(=O)CCOCCOCCOCCNC(=O)COc2ccc3c(C(=O)NCC(=O)N4CCC[C@H]4C#N)ccnc3c2)C(=O)O)cc1 (some centres unmarked) | > 10.00
CCCC(=O)NCCCC[C@H](NC(=O)[C@H](CCCCNC(=S)Nc1ccc(CC2CN(CC(=O)O)CCN(CC(=O)O)CCN2CC(=O)O)cc1)NC(=O)CCOCCOCCOCCNC(=O)COc1ccc2c(C(=O)NCC(=O)N3CCC[C@@H]3C#N)ccnc2c1)C(=O)O (some centres unmarked) | 8.30 to 9.30
N#C[C@H]1CCCN1C(=O)CNC(=O)c1ccnc2cc(OCC(=O)NCCOCCOCCOCCC(=O)N[C@@H](CCCCNC(=S)Nc3ccc(CC4CN(CC(=O)O)CCN(CC(=O)O)CCN(CC(=O)O)CCN4CC(=O)O)cc3)C(=O)N[C@@H](CCCCNC(=O)Cc3ccc(I)cc3)C(=O)O)ccc12 (some centres unmarked) | 8.30 to 9.30
CCCCCC(=O)NCCCC[C@H](NC(=O)[C@H](CCCCNC(=S)Nc1ccc(CC2CN(CC(=O)O)CCN(CC(=O)O)CCN2CC(=O)O)cc1)NC(=O)CCOCCOCCOCCNC(=O)COc1ccc2c(C(=O)NCC(=O)N3CCC[C@@H]3C#N)ccnc2c1)C(=O)O (some centres unmarked) | 8.30 to 9.30
CC(=O)NCCCC[C@H](NC(=O)[C@H](CCCCNC(=O)CCc1ccc(OC2=C(/C=C/C3=[N+](CCC[N+](C)(C)C)c4ccc(S(=O)(=O)O)cc4C3(C)C)CCC/C2=C\C=C2\N(CCC[N+](C)(C)C)c3ccc(S(=O)(=O)O)cc3C2(C)C)cc1)NC(=O)CCOCCOCCOCCNC(=O)COc1ccc2c(C(=O)NCC(=O)N3CCC[C@H]3C#N)ccnc2c1)C(=O)O | > 10.00
